This is an account of results in patent US6177441A, “Treating red blood cell solutions with anti-viral agents” (Cerus Corporation, priority 1998, dated 2001).

The test system of series [1] is R17. Kind of series: R17 phage inactivation by QM in Adsol or DMSO, red blood cells (Example 1). The conditions noted are these: 30% Htc.
Series [2] has as its system R17. Kind of series: R17 inactivation in red blood cells, QM vs chlorambucil (Example 10). Format: cell-based, bacteriophage R17. Particulars: all concentrations (10-300 μg/ml), 4° C. overnight.
The next series deals with red blood cells. Particulars: 80 μg/ml, high dose biotin label; untreated 93.5.
The test system of series [3] is R17. Kind of series: R17 inactivation by QM as a function of hematocrit (Example 2). The conditions noted are these: QM 1.0 μg/ml.
Series [4] deals with R17. Kind of series: Kinetics of R17 inactivation by QM with NAC quench (Example 3).
For series [5], the system named is R17. Kind of series: Loss of QM anti-viral activity on pre-incubation in Adsol; light controls (Example 4).
Series [6] has as its system R17. Kind of series: R17 inactivation by QM after pre-incubation in Adsol, red blood cells or with Amberlite XAD-16 (Example 5).

A value given as a limit tells only on which side of the number the result lay.

For the molecule `COc1ccc2nc3cc(Cl)ccc3c(NC(C)CCCN(CCCl)CCCl)c2c1.Cl.Cl` (stereo not drawn), the “Log Titer” value in the series on R17 [1] (QM 2.5 μg/ml, solvent DMSO) is 5.2; in the series with R17 [1] (QM 5 μg/ml, solvent DMSO) it was 2.3; in the series with R17 [1] (QM 10 μg/ml, solvent DMSO), 2.4; in the series on R17 [1] (QM 20 μg/ml, solvent Adsol) it was 1.3; with R17 [3] (Htc 3%), 2.1; in the series on R17 [3] (Htc 10%), 2.6. Besides, the “Log Titer” value in the series on R17 [3] (Htc 30%) stood at 2.4; in the series on R17 [4] (QM first, NAC quench at 0 min, dilute), 8.11; in the series on R17 [4] (QM first, NAC quench at 2 min, dilute), 6.81; with R17 [4] (QM first, NAC quench at 4 min, dilute), 5.79; in the series on R17 [4] (QM first, NAC quench at 8 min, dilute) it was 4.10; with R17 [4] (QM first, NAC quench at 16 min, dilute), 3.74. The “Log Titer” value in the series with R17 [4] (QM first, NAC quench at 32 min, dilute) is on record as 2.69; in the series on R17 [4] (QM first, NAC quench at 64 min, dilute), 2.39; with R17 [4] (QM first, NAC quench at 128 min, dilute), no more than 2.4; in the series with R17 [4] (first add NAC, then QM, dilute) it was 8.66; with R17 [4] (first add NAC, then QM, dilute at end) it was 6.32; with R17 [5] (QM 0 min pre-incubation, dark), 3.8. The “Log Titer” value turned out to be 3.9 with R17 [5] (QM 10 min pre-incubation, dark); 3.9 in the series on R17 [5] (QM 40 min pre-incubation, dark); 4.8 in the series with R17 [5] (QM 2 hour pre-incubation, dark); 3.9 in the series with R17 [5] (QM + light (not wrapped in foil), time 0, control 9.7); 2.9 in the series on R17 [6] (QM-Adsol, 0 min, untreated 9.7); 3.7 with R17 [6] (QM-Adsol, 240 min). The “Log Titer” value with R17 [6] (QM-RBC, 0 min) stood at 2.8; with R17 [6] (QM-RBC, 60 min), 7.1; with R17 [6] (QM-RBC, 240 min) it was 9.7; with R17 [6] (QM-XAD (RBC + XAD-16), 15 min), 7.9; in the series on R17 [6] (QM-XAD (RBC + XAD-16), 30 min), 9.1; with R17 [6] (QM-XAD (RBC + XAD-16), 60 min), 9.6. The “Log Titer” value with R17 [6] (QM-XAD (RBC + XAD-16), 120 min) was found to be 9.8; in the series on R17 [6] (QM-XAD (RBC + XAD-16), 240 min) it was 9.8. This molecule also gave an R17 inactivation with R17 [2] of no less than 8.4 logs/ml. Further, the “% RECOVERY, HIGH” value in the series on red blood cells is recorded as 91.2%.

Consider `CCN(CC)CCCC(C)Nc1c2ccc(Cl)cc2nc2ccc(OC)cc12` (stereo not drawn) [quinacrine], for which the “Log Titer” value with R17 [5] (quinacrine + light, control 9.7) is 9.7; with R17 [5] (quinacrine in foil, control 9.7), 9.7.
